The assay has as its target CXCR2 (Homo sapiens (Human), UniProt P25025). Kind of assay: Inhibition of GROα-mediated intracellular calcium release in human neutrophils (FLIPR-3 Ca2+ mobilization). Type of assay: cell-based. The settings on record: 25 nM GROα. A general note: Calcium assays in cells follow changes in intracellular calcium, usually with a dye or a luminescent sensor.

Sequences of proteins named here, by UniProt entry; tags and fusion partners are left off.
UniProt P25025, whole entry: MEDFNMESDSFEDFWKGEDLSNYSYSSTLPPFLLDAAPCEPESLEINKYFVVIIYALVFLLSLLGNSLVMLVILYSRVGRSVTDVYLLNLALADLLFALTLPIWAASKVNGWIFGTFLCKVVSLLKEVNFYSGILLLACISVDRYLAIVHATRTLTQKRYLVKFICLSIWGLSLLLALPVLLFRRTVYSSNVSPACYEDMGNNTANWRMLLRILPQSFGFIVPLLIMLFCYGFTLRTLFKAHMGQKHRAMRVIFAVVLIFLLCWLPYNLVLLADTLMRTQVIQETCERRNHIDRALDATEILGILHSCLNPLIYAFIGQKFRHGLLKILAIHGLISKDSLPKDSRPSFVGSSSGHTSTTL

By IC50 is commonly meant the concentration that inhibits the measured activity by half. In the case of `O=C(Nc1ccc(F)cc1)c1ccc(S(=O)(=O)Cc2ccccc2O)nc1`, the IC50 stood at 10.2 µM.

Take `O=C(Nc1ccc(F)cc1)c1ccc(S(=O)(=O)Cc2cc(OC(F)(F)F)ccc2O)nc1`: the IC50 came to 1.19 µM.

Turning to `O=C(Nc1ccc(F)cc1)c1ccc([S+]([O-])Cc2ccccc2)nc1` (centres unmarked), the IC50 is greater than 10 µM.

Take `O=C(Nc1ccc(F)cc1)c1ccc([S+]([O-])Cc2cc(OC(F)(F)F)ccc2O)nc1` (centres unmarked): the IC50 came out at 1.23 µM.

Turning to `O=C(Nc1ccc(F)cc1)c1ccc(S(=O)(=O)Cc2ccccc2)nc1`, the IC50 was greater than 10 µM.

The values are drawn from patent US8981106B2, “Pyrimidinecarboxamides as CXCR2 modulators” (Syntrix Biosystems, Inc., priority 2009, dated 2015).
